Experimental data: ChEMBL document CHEMBL3745662, “Preliminary investigation of 6,7-dihydropyrazolo[1,5-a]pyrazin-4-one derivatives as a novel series of mGlu5 receptor positive allosteric modulators with efficacy in preclinical models of schizophrenia” (Bioorg Med Chem Lett, 2016)

Tested on: Rattus norvegicus
Test: Antipsychotic-like activity in po dosed Sprague-Dawley rat assessed as reversal of amphetamine-induced hyperlocomotion
Assay type: functional
Conditions: read-out: MED

## O=C1c2cc(COc3ccccc3)nn2CCN1c1ccc(F)cn1
  minimal effective dose: 3 mg/kg
